Values quoted from earlier work as cited in article PMC5452965 (PeerJ, 2017).

Sequences of proteins named here, by UniProt entry; tags and fusion partners are left off.
UniProt P02550, whole entry: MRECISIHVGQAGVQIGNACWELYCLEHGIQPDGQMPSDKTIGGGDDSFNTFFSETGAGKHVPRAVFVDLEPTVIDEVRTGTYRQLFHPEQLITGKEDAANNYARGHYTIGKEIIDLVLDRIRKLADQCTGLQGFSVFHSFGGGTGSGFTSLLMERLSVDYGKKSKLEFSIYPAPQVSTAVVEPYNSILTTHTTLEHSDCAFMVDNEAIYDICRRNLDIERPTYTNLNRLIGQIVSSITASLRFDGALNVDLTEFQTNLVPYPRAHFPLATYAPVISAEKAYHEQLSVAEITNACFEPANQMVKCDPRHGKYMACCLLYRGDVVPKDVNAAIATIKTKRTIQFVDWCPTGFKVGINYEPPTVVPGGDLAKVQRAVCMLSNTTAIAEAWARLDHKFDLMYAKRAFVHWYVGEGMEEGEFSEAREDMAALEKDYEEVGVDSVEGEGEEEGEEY
UniProt P02554, whole entry: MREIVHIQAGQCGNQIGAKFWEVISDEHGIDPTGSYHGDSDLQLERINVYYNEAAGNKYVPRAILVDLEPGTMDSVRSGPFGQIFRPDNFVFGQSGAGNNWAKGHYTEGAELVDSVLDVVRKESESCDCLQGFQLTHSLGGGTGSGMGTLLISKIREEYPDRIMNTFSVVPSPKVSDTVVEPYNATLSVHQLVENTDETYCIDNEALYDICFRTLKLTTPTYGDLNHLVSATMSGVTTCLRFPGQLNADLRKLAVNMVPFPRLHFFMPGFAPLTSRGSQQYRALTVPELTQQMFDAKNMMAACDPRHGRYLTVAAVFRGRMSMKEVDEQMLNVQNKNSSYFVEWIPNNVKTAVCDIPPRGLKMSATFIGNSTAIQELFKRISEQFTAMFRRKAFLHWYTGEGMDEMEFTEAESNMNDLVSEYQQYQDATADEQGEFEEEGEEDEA

How the values were obtained:
[1] = test system: microtubule network in α-tubulin-GFP U2OS cells; settings: both concentrations (IC80, IC50), ref Wang et al. (2016a); cited from earlier work
[2] = target: T1, Porcine brain tubulin plus MAPs (Sus scrofa, UniProt P02550+P02554); settings: ref Wang et al. (2016a), cited from earlier work
T1 construct: Porcine brain tubulin plus MAPs was prepared by two cycles of polymerization and depolymerization; from tissue; host or cells: porcine brain

Row | Structure (SMILES) | effect on cellular microtubule network [1] | inhibition of tubulin polymerization at 1 mM ([2]; 1 mM, Figure 4D) | effect on tubulin assembly in vitro [2]
1 | COc1cc2c(c(OC)c1OC)-c1ccc(OC)c(=O)cc1[C@@H](NC(C)=O)CC2 [Colchicine, colchicine] | decreased the microtubule mass | – | –
2 | C/C1=C/C(=O)O[C@@H]2C[C@@H](CC[C@H](C)/C=C\CC1)O[C@@](O)([C@@H]1CSC(=O)N1)C2 [Latrunculin B, latrunculin B] | – | around 30% | did not exhibit significant inhibition on tubulin assembly
